Laboratory results taken from PubChem BioAssay AID1631 (National Center for Advancing Translational Sciences (NCATS), 2009).
Only a part is listed here, and it is no random draw. Calls of active or inactive are those of the source. Calls follow the shape of the dose curve; as a rule, active = well fitted activation curve with a large enough effect; inconclusive = small, poorly fitted or top-dose-only effect; inactive = no such curve, though single readings can be large or run the other way.

By UniProt entry, the sequences of proteins in these tests, tags left out.
UniProt P14618, whole entry: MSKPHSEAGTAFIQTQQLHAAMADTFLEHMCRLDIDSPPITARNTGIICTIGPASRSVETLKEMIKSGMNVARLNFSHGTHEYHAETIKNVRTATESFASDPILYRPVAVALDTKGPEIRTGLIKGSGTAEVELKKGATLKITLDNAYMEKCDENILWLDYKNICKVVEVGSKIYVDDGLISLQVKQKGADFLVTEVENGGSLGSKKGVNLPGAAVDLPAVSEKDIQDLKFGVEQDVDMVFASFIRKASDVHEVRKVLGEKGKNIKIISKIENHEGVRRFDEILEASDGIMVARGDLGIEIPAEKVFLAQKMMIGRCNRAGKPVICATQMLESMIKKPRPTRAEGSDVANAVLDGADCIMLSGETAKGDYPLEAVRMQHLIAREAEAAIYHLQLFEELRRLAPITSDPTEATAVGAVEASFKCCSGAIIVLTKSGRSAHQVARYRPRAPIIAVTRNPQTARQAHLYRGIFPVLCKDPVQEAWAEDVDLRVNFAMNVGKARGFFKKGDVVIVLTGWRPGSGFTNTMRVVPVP

What follows are molecules tested against Pyruvate kinase PKM (Homo sapiens) (UniProt P14618) (assay: qHTS Assay for Activators of Human Muscle isoform 2 Pyruvate Kinase). Settings: purified PKM2, Kinase-Glo ATP luminescence, 0% is enzyme alone, no compound; at 57.5 µM (top of the series).
Source text: NIH Chemical Genomics Center [NCGC] Matthew G. Vander Heiden, M.D., Ph.D. [Harvard Medical School, 77 Avenue Louis Pasteur, Boston, MA 02115] MLPCN Grant: 1 R03 MH085679-01 NCGC Assay Overview: Human pyruvate kinase muscle 2 (hPK-M2) enzyme was supplied as a highly purified (>95% pure) preparation from Harvard Medical School and assayed for its ability to generate ATP from ADP using phosphoenolpyruvate (PEP) as a substrate. ATP generation was detected in a coupled reaction by luciferase-mediated luminescence, an ATP-dependent process. […] The enzyme was assayed at an intermediate level of activity to screen for both inhibitors and activators.
NCGC Assay Protocol Summary: Three uL of substrate mix (at r.t.) in assay buffer (50 mM Imidazole pH7.2, 50 mM KCl, 7 mM MgCl2, 0.01% Tween 20, 0.05% BSA) was dispensed into white solid bottom 1,536 well microtiter plates so that the final concentrations of substrates in the assay were 0.1 mM ADP and 0.5 mM PEP. 23 nL of compound were delivered by a pin tool and 1 uL of enzyme mix in assay buffer (4 degree Celsius) was added. Plates were incubated at room temperature for 1 hour. Two uL of detection mix (Kinase-Glo, Promega; at 4 degree Celsius protected from light) was added and luminescence read by a ViewLux (Perkin Elmer) at 5 second exposure/plate. Data were normalized to the uninhibited and AC100 inhibition (no enzyme). To monitor activation, the first column contained a titration of the activator, NCGC00031955-01 (16-point 1:2 dilutions in duplicate starting at 57 uM) and the first 16 rows of column 4 contained 57 uM of NCGC00031955-01.
% is scaled to controls: 0 for no effect and ±100 for the full control effect.
Also: nearly all actives have a fitted effect of over 55% in size.

Structure (SMILES)	activation
CC1=NCCc2c1[nH]c1ccccc21.O=[N+]([O-])c1cc([N+](=O)[O-])c(O)c([N+](=O)[O-])c1	inactive: 2.02%
COc1ccccc1OP(C)(=O)Nc1cccc(Br)c1 (configuration not stated)	inactive: 0.136%
CCOC(=O)c1ccc(NP(C)(=O)Oc2cc(C)cc(C)c2)cc1 (configuration not stated)	inactive: -2.35%
Cc1cc(C)cc(OP(C)(=O)Nc2ccc(C)cc2C)c1 (configuration not stated)	inactive: -0.918%
Cc1ccc(C)c(NP(C)(=O)Oc2ccccc2)c1 (configuration not stated)	inactive: -20.2%
Cc1cc(C)cc(OP(C)(=O)Nc2ccccn2)c1 (configuration not stated)	inactive: -1.66%
CP(=O)(Nc1cccc(Br)c1)Oc1ccccc1 (configuration not stated)	inactive: -2.91%
O=[N+]([O-])c1cc([N+](=O)[O-])c(-n2nnc3ccccc32)c([N+](=O)[O-])c1	inactive: -1.57%
Cc1nc2ccc3ccccc3c2s1.O=[N+]([O-])c1cc([N+](=O)[O-])c(O)c([N+](=O)[O-])c1	inactive: -2.76%
O=[N+]([O-])c1cc([N+](=O)[O-])c(Nc2nnnn2CCO)c([N+](=O)[O-])c1	inactive: -9.87%
CN1CCCCC1COC(=O)C1(O)c2ccccc2CCc2ccccc21 (configuration not stated)	inactive: -23.3%
COc1ccccc1OP(C)(=O)Nc1c(C)cccc1C (configuration not stated)	inactive: -0.0669%
CCCOc1ccc(NP(C)(=O)Oc2ccc(Cl)cc2)cc1 (configuration not stated)	inactive: -0.634%
CP(=O)(Nc1ccc(SC(F)(F)F)cc1)Oc1ccccc1 (configuration not stated)	inactive: -13.7%
CP(=S)(Nn1cnnc1)Oc1ccccc1 (configuration not stated)	inactive: -1.31%
CP(=O)(Nc1ccccc1Br)Oc1ccccc1 (configuration not stated)	inactive: -3.72%
COc1ccccc1OP(C)(=O)Nc1ccccc1 (configuration not stated)	inactive: 3.12%
CP(=O)(Nc1ccc(SC(F)(F)F)cc1)Oc1ccc(Cl)cc1 (configuration not stated)	inactive: 0.861%
Cc1cccc(C)c1OP(C)(=O)Nc1ccc(SC(F)(F)F)cc1 (configuration not stated)	inactive: 2.89%
CP(=O)(Oc1ccccc1)OC(c1ccccc1)C(F)(F)F (configuration not stated)	inactive: 3.82%
CP(=O)(NC(=O)Nc1ccccc1)Oc1ccccc1 (configuration not stated)	inactive: 1.33%
CCc1ccc(OP(C)(=O)N2CCN(c3ccc([N+](=O)[O-])cc3)CC2)cc1 (configuration not stated)	inactive: 2.39%
Cc1cc(C)cc(OP(C)(=O)Nc2ccc(SC(F)(F)F)cc2)c1 (configuration not stated)	inactive: -4.19%
CCOC(=O)c1ccc(NP(C)(=O)Oc2ccc(OC)cc2)cc1 (configuration not stated)	inactive: -0.551%
CCOP(C)(=S)SCC(=O)NC(C)C(=O)O (configuration not stated)	inactive: -0.747%
CP(=O)(Nc1ccccn1)Oc1ccc(Cl)cc1 (configuration not stated)	inactive: 9.37%

Structure (SMILES)	activation
O=[N+]([O-])c1ccc2c(c1)C=Nc1ccccc1O2	inactive: 17.6%
CC(C)(C)c1ccc(OP(C)(=O)Nc2ccc(SC(F)(F)F)cc2)cc1 (configuration not stated)	inactive: 1.33%
Cc1cccc(C)c1OP(C)(N)=O (configuration not stated)	inactive: 9.04%
COc1ccccc1OP(C)(=O)Nc1ccc(C)cc1 (configuration not stated)	inactive: 3.03%
Cc1ccc(NP(C)(=O)Oc2ccccc2)c(C)c1 (configuration not stated)	inactive: -1.56%
CCOC(=O)c1ccc(NP(C)(=O)Oc2ccccc2)cc1 (configuration not stated)	inactive: -3.78%
Cc1cc(C)cc(OP(C)(N)=O)c1 (configuration not stated)	inactive: 0.137%
COc1ccccc1OP(C)(=O)Nc1cc(Cl)ccc1C (configuration not stated)	inactive: -0.575%
COc1ccc(OP(C)(=O)Nc2cccc(F)c2)cc1 (configuration not stated)	inactive: 5.34%
Cc1cc(C)cc(OP(C)(=O)Nc2cccc(C(F)(F)F)c2)c1 (configuration not stated)	inactive: -2.44%
COc1ccccc1OP(C)(=O)Nc1ccc(C)c(C)c1 (configuration not stated)	inactive: 2.09%
COc1ccc(OP(C)(=O)Nc2ccccc2Br)cc1 (configuration not stated)	inactive: 2.74%
Cc1nc2ccc3ccccc3c2o1.O=[N+]([O-])c1cc([N+](=O)[O-])c(O)c([N+](=O)[O-])c1	inactive: 23.3%
CP(=O)(Nc1ccc(Cl)cc1Cl)Oc1ccccc1 (configuration not stated)	inactive: -1.91%
CP(=O)(OCCOc1ccccc1)OCCOc1ccccc1	inactive: -39.2%
COc1ccccc1OP(C)(=O)Nc1ccc(Br)cc1 (configuration not stated)	inactive: 1.97%
COc1ccc(OP(C)(=O)Nc2ccccn2)cc1 (configuration not stated)	inactive: -0.307%
CN(C)CCOC(=O)C(O)(c1ccccc1)C1CCCC1 (configuration not stated)	inactive: -1.96%
Cc1c(NP(C)(=O)Oc2ccc(C(C)C)cc2)c(=O)n(-c2ccccc2)n1C (configuration not stated)	inactive: 7.32%
O=[N+]([O-])c1cc([N+](=O)[O-])c(Nc2ccccn2)c([N+](=O)[O-])c1	inactive: -0.647%
CP(=O)(Nc1ccccn1)Oc1ccccc1 (configuration not stated)	inactive: 7.78%
COc1ccccc1OP(C)(=O)Nc1ccc(C)cc1C (configuration not stated)	inactive: -2.11%
CCc1ccc(OP(C)(=O)O)cc1	inactive: -3.98%
CCN(CC)CC(O)COC(=O)C(O)(c1ccccc1)C1CCCCC1 (configuration not stated)	inactive: 3.07%
COc1ccc(OP(C)(=O)Nc2ccc(Br)cc2)cc1 (configuration not stated)	inactive: -2.91%
O=C(OCCCN1CCCC1)C(O)(c1ccccc1)C1CCCCC1 (configuration not stated)	inactive: -17%

Structure (SMILES)	activation
CP(=O)(Oc1ccccc1)N1CCOC1=O (configuration not stated)	inactive: -2.84%
CCc1ccc(OP(C)(=O)Nc2cccnc2)cc1 (configuration not stated)	inactive: -3.21%
COc1ccccc1OP(C)(=O)Nc1ccccc1Br (configuration not stated)	inactive: 0.735%
CC(C)(C)c1ccc(OP(C)(=O)O)cc1	inactive: -2.07%
CP(=O)(Nc1ccc(Cl)cc1)Oc1ccc(F)cc1 (configuration not stated)	inactive: -0.776%
CN(C)C(=O)c1c([N+](=O)[O-])cc([N+](=O)[O-])cc1[N+](=O)[O-]	inactive: -8.94%
CCOC(=O)c1ccc(NP(C)(=O)Oc2ccc(Cl)cc2)cc1 (configuration not stated)	inactive: -0.0117%
CP(=O)(OC12CC3CC(CC(C3)C1)C2)OC12CC3CC(CC(C3)C1)C2	inactive: 0.301%
COc1ccc(OP(C)(=O)Nc2cccc(Br)c2)cc1 (configuration not stated)	inactive: -28.9%
CN(C)CCOC(=O)C(O)(c1ccccc1)C1CCCCC1 (configuration not stated)	inactive: 1.35%
COc1ccc(NP(C)(=O)Oc2ccccc2OC)cc1 (configuration not stated)	inactive: -0.712%
O=[N+]([O-])c1ccc(OP2(=O)COCCO2)cc1 (configuration not stated)	inactive: 0.885%
Cc1cc(-c2cccc3ccccc23)c(C)cn1.O=[N+]([O-])c1cc([N+](=O)[O-])c(O)c([N+](=O)[O-])c1	inactive: -1.42%
CP(=O)(Nc1ccc(SC(F)(F)F)cc1)Oc1ccc(F)cc1 (configuration not stated)	inactive: -2.74%
CCOP(C)(=S)SCC(=O)NC(C)(CC)C(=O)O (configuration not stated)	inactive: -6.17%
CP(=O)(Nc1ccc2c(c1)OCCO2)Oc1ccccc1 (configuration not stated)	inactive: -2.58%
Cc1ccccc1NP(C)(=O)Nc1ccccc1C	inactive: -0.584%
CP(=O)(Nc1ccccc1F)Oc1ccccc1 (configuration not stated)	inactive: 3.86%
CC(C)c1ccc(OP(C)(=O)Nc2ccc(SC(F)(F)F)cc2)cc1 (configuration not stated)	inactive: 3.97%
O=C(OCCN1CCN(CCOCc2ccccc2)CC1)C(O)(c1ccccc1)c1ccccc1	inactive: -0.392%
CCOC(=O)c1ccc(NP(C)(=O)Oc2ccc(F)cc2)cc1 (configuration not stated)	inactive: 6.08%
COc1ccc(OP(C)(=O)Nc2ccc(SC(F)(F)F)cc2)cc1 (configuration not stated)	inactive: 0.0907%
CCN(CC)CCCOC(=O)C(O)(c1ccccc1)C1CCCCC1 (configuration not stated)	inactive: 4.11%
CP(=O)(Nc1ccccc1)Oc1ccc(F)cc1 (configuration not stated)	inactive: -7.81%
CCCCCOc1ccc(NP(C)(=O)Oc2ccc(Cl)cc2Cl)cc1 (configuration not stated)	inactive: -4.2%
